One compound from PMC7659582 (Cell Reports Medicine, 2020) can be followed below.

Chains of the proteins cited; added tags and fusions are not shown. Lines headed by an entry give the natural chain unless they say otherwise; changes in a name come on top.
UniProt Q12809: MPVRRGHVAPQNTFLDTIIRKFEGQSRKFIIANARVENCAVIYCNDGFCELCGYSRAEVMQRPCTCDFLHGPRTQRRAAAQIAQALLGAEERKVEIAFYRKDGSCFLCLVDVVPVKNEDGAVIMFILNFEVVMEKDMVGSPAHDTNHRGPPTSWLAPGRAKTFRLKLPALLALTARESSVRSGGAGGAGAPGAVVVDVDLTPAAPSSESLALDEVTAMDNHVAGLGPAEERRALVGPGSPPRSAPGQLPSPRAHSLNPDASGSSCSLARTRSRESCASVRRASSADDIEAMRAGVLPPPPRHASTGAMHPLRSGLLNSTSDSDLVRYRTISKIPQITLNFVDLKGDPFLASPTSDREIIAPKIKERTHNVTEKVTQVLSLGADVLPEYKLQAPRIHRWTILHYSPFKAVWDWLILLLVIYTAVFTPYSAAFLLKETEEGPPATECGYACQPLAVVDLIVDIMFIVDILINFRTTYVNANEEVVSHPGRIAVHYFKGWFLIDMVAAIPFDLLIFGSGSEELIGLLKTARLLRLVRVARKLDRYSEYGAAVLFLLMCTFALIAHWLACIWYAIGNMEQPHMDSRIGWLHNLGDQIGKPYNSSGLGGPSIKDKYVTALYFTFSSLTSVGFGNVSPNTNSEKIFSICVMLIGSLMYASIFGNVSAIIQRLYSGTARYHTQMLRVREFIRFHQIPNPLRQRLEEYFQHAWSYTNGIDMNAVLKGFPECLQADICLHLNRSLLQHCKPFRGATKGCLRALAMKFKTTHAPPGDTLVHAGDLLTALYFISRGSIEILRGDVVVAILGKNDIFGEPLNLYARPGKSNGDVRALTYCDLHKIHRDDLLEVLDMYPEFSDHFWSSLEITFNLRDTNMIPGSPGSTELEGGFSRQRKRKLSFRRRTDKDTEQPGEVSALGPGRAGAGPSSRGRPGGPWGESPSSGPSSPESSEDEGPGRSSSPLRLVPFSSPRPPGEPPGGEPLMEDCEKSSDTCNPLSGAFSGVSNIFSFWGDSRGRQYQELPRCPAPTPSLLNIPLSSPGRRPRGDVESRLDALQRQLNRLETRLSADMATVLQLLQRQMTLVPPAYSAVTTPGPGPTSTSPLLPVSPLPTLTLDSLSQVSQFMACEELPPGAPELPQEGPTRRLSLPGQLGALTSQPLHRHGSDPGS

Structures are written as SMILES.

This data set concerns the target hERG (Homo sapiens, UniProt Q12809).

Take `CC(C)COCC(CN(Cc1ccccc1)c1ccccc1)N1CCCC1` (stereo not shown) [BEPRIDIL]: the “hERG IC50/Free Cmax Ratio” value is listed as 1.42.
